Experimental data reported in US20140093459A1, “NOVEL COMPOUND” (DSM IP ASSETS B.V., priority 2009, published 2014).

How the values were obtained:
[1] = Comparative: solubility of BMDBM in 1:1 (w/w) mixture of C12-15 alkyl benzoate and a polymeric or solid UV-filter (HPLC after 1 month at RT); details: solvent alone, baseline repeated under each UV-filter column
[2] = e.g. C12-15 alkyl benzoate, diisopropyl sebacate or dibutyl adipate; typical value; cited from earlier work
[3] = Reduction of solvent necessary to dissolve solid UV-filter; assay type: physicochemical
[4] = Solubility of BMDBM or BEMT in C12-15 alkyl benzoate (saturation, HPLC of supernatant); assay type: physicochemical

- Solubility of BMDBM in C12-15 alkyl benzoate [1]: 14 wt.-%
- amount of C12-15 alkyl benzoate necessary to solubilize 0.5 g BMDBM ([3]; C12-15 alkyl benzoate alone): 3.0 g
- amount of diisopropyl sebacate necessary to solubilize 0.5 g BMDBM ([3]; diisopropyl sebacate alone): 2.0 g
- Solubility in C12-15 alkyl benzoate ([4]; C12-15 alkyl benzoate alone (summary table)): 14 wt.-%
- solubility in the cosmetic solvent C12-15 alkyl benzoate ([4]; C12-15 alkyl benzoate alone, saturation, HPLC of supernatant): 14 wt.-%
Substance: butyl methoxydibenzoylmethane [BMDBM]
- solubility in the conventional cosmetic oils [2]: less than 20%
